Values of other authors in paper PMC5495814, “The impact of the butterfly effect on human parainfluenza virus haemagglutinin-neuraminidase inhibitor design” (Scientific Reports, 2017).

Sequences of proteins named here, by UniProt entry; tags and fusion partners are left off. A change or cut given only in a name is not applied to a line headed by its entry.
UniProt P08492: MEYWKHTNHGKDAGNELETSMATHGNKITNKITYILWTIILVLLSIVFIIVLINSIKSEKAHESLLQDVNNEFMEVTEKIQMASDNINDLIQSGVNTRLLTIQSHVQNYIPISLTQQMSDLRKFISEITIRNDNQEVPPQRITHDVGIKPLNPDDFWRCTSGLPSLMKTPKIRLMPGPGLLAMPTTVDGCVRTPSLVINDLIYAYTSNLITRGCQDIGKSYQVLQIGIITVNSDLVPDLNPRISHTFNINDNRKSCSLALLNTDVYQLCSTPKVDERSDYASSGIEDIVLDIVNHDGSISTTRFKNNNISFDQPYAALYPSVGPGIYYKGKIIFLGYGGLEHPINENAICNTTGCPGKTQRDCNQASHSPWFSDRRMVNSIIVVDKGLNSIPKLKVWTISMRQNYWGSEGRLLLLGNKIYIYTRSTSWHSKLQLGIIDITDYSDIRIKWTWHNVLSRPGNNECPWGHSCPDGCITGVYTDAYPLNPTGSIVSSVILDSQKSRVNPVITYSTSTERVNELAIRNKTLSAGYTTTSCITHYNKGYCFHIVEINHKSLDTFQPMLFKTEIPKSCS

Target: hPIV-3 HN haemagglutinin function (Human parainfluenza 3 virus, UniProt P08492)
Conditions: read-out: HI IC50; recently reported 2,3-difluoro-N-acylneuraminic acid; cited from earlier work

**Q.** With 2,3-difluoro-N-acylneuraminic acid as the substance, how does the IC50 read?
**A.** 1000 µM
